This is a sample that favours compounds with a hit; in the whole collection about 1.8% have one here.
Yeast UUG start – alters start codon recognition fidelity in yeast; AID 602363; activity score, % at 18.7 µM; 350,000 tested, 0.13% active; S. cerevisiae UUG-firefly luciferase reporter, luminescence/redox ratio;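 active means replicate mean at a twofold rise or more, about +100% in these data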;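 further: firefly luciferase made from a UUG start codon reports start codon fidelity; reporter light over untreated wells divided by growth signal over untreated wells; some hits fall short of that in this replicate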
E-sel inducer – E-selectin induction on HUVECs | P16581 | AID 686992 | HUVEC E-selectin immunofluorescence imaging; normalized: neutral wells 0, TNF-alpha wells 100 | hit rate 0.37% among 260,000 | activation, % at 7.58 µM;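 active = mean E-selectin-positive cell signal at least 10% of the positive control, reached in at least 60% of replicates, without over 20% cell loss; inconclusive = no rule given, readout overlaps actives, possibly toxicity-flagged; inactive = the rest, including those meeting only one limit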
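Assay system: HUVEC primary endothelial cells. Input: 3,000 HUVEC seeded per well. Doses: one compound dose added by pin transfer. Read-out basis: % PE-positive cells. Benchmarks: TNF-alpha high, DMSO low. Detection: immunofluorescence imaging. Buffer or medium: EGM-2, gelatin.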
Cneo AK release – Cryptococcus neoformans lysis via adenylate kinase release; lysis activity, % at 15 µM; C. neoformans lysis, adenylate kinase release luminescence, 4 h; normalised: neutral wells 0, clomiphene wells 100; AID 651654; hit rate 0.2% among 360,000;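 active = mean lysis activity across replicates of at least 80%, whatever share of replicates individually reach that level; inactive = mean lysis activity below 80%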
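Material: C. neoformans cells; Schedule: 4 h static compound exposure, 37 °C, read 1 h post-reagent; Measured by: adenylate kinase release luminescence; Read-out: signal increase indicating cell lysis; Controls: Clomiphene as positive lysis control.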
DENV2 CPE – protects cells from dengue virus 2 cytopathic effect. CPE inhibition, % at 9.99 µM. hit rate 1.7% among 350,000. DENV2-infected cells, cytopathic effect rescue, plate reader. AID 651640; in the data active = CPE inhibition above about 20%, passing the limit was not always enough; inconclusive = no clear call, values can overlap the other calls; tested in BHK-21 cells;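 also: 0% = median of neutral control wells and 100% = median of positive control wells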
* hit, by the source's call; ? = inconclusive; . = not tested or not shown.

structure | E-sel inducer | DENV2 CPE | Yeast UUG start | Cneo AK release
Cc1cc(OCc2cc(C(=O)N(C)C(C)c3ccccn3)no2)cc(C)c1Cl (centres undefined) | . | 31.3* | -14.0 | 5.3
Cc1ccc(N2C(=O)N3[C@H](c4ccc(Br)cc4)[C@@H]4C(=O)N(C(C)(C)C)C(=O)[C@@H]4[C@]3(C)C2=O)cc1 | . | 6.9 | 29.8 | -4.7
Cc1cccc(N2C(=O)N3[C@H](c4ccc(Br)cc4)[C@@H]4C(=O)N(C(C)(C)C)C(=O)[C@@H]4[C@]3(C)C2=O)c1 | 0.3 | 25.7* | 1.0 | 0.2
COc1ccc2c3c([nH]c2c1)[C@@H](CO)N(Cc1ccccc1Cl)CC31CN(C(=O)C2CC2)C1 | 1.6 | 23.2* | . | .
COc1ccc2c3c([nH]c2c1)[C@H](CO)N(Cc1ccccc1Cl)CC31CN(C(C)=O)C1 | -0.5 | 0.3 | . | .
COc1ccc2c3c([nH]c2c1)[C@@H](CO)N(Cc1ccccc1Cl)CC31CCN(C(=O)C2CC2)CC1 | -0.1 | ? | . | .
COc1ccc2c3c(n(C)c2c1)[C@H](CO)N(Cc1ccccc1Cl)CC31CCN(C(=O)CC2CC2)CC1 | -0.3 | 30.8* | . | .
COc1ccc2c3c([nH]c2c1)[C@H](CO)N(Cc1ccccc1Cl)CC31CCN(C(C)=O)CC1 | -0.5 | 22.5* | . | .
COc1ccc2c3c([nH]c2c1)[C@@H](CO)N(Cc1cccc(Cl)c1)CC31CCN(C(C)=O)CC1 | -0.4 | 30.1* | . | .
CCN1[C@H](C(=O)N2CCc3ccccc3C2)[C@@H](CO)[C@@H]2Cn3c(cccc3=O)[C@@H]21 | 0.0 | 1.0 | . | -1.8

Next section:
structure | E-sel inducer | DENV2 CPE | Yeast UUG start | Cneo AK release
COc1ccc2c3c(n(C)c2c1)[C@H](CO)N(S(C)(=O)=O)CC31CCN(CC2CCCC2)CC1 | -0.2 | -9.4 | . | .
CCN(CC)S(=O)(=O)c1cccc(C(=O)NCC2(N3CCOCC3)CCCCC2)c1 | 0.8 | 95.5* | -17.8 | 0.5
COc1ccccc1C#Cc1ccc2c(c1)O[C@H](CN(C)C(C)=O)[C@@H](C)CN([C@H](C)CO)S2(=O)=O | -0.3 | 5.6 | 17.0 | -11.7
C[C@H](CO)N1C[C@H](C)[C@@H](CN(C)C)Oc2cc(C#Cc3ccccc3F)ccc2S1(=O)=O | 103.7* | 10.1 | -3.5 | 6.2
COc1ccccc1C#Cc1ccc2c(c1)O[C@H](CN(C)C(C)=O)[C@H](C)CN([C@@H](C)CO)S2(=O)=O | -0.1 | 0.7 | 37.4 | 103.5*
Cc1noc(C)c1S(=O)(=O)Nc1ccc2c(c1)CC(=O)N([C@@H](C)CO)C[C@@H](C)[C@@H](CN(C)Cc1ccc(C(=O)O)cc1)O2 | -3.7 | -15.1 | -15.3 | -2.0
CC(C)NC(=O)N1[C@H](CO)[C@@H]2c3ccccc3N(C(=O)C3CC3)C[C@@H]21 | 0.5 | 3.7 | -1.6 | -4.2
Brc1ccc(-c2ccccc2)cc1 | . | 62.3* | -4.7 | 1.2
O=C(Nc1ccc(-c2ccccc2)cc1)[C@@H]1[C@@H](CO)[C@@H]2Cn3c(cccc3=O)[C@H]1N2Cc1cncnc1 | -0.4 | 5.0 | . | -0.4
CCC(=O)Nc1ccc2c(c1)C(=O)N(C)[C@H]1CC[C@H](CC(=O)NC3CCCC3)O[C@H]1CO2 | -0.2 | -10.0 | -4.6 | -2.5

Carrying on.
structure | E-sel inducer | DENV2 CPE | Yeast UUG start | Cneo AK release
CN1C(=O)c2cc(NC(=O)NC3CCCC3)ccc2OC[C@H]2O[C@H](CC(=O)NC3CCC3)CC[C@@H]21 | -0.1 | 61.4* | -4.1 | -2.4
CCC(=O)Nc1ccc2c(c1)C(=O)N(C)[C@@H]1CC[C@H](CC(=O)NC3CCCC3)O[C@H]1CO2 | 0.0 | 43.5* | 16.6 | -1.6
O=C(C1CCCC1)N1CC2(C1)[C@H](c1ccccc1)[C@@H](CO)N2CC1CCCC1 | 0.1 | 9.4 | . | .
O=C(Nc1ccccc1)N1CCCCN2[C@H](CO)[C@@H](c3ccc(C#CC4CC4)cc3)[C@@H]2C1 | -0.3 | 9.5 | 41.7 | 100.5*
O=C(Nc1ccccc1)N1CCCCN2[C@@H](CO)[C@@H](c3ccc(Br)cc3)[C@@H]2C1 | 0.1 | 32.8* | -0.1 | 2.7
O=C(Nc1ccccc1)N1CCCCN2[C@H](C1)[C@@H](c1ccc(C#Cc3ccccc3)cc1)[C@@H]2CO | -0.9 | -2.8 | 4.0 | -2.0
O=C(Nc1ccccc1)N1CCCCN2[C@H](CO)[C@H](c3ccc(C#CC4CC4)cc3)[C@H]2C1 | -0.9 | 33.8* | 4.9 | 0.8
O=C(Nc1ccccc1)N1CCCCN2[C@H](CO)[C@H](c3ccc(C#Cc4ccccc4)cc3)[C@@H]2C1 | -0.6 | 4.5 | 3.3 | -0.9
C[C@H]1CN([C@@H](C)CO)S(=O)(=O)c2ccc(C#CCN(C)C)cc2O[C@H]1CN(C)C(=O)C1CCCCC1 | -0.1 | 15.1 | . | -0.7
O=C(c1cccc(F)c1)N1CC2(C1)[C@@H](c1ccccc1)[C@@H](CO)N2Cc1ccccn1 | 0.1 | 4.5 | . | .

New compounds follow.
structure | E-sel inducer | DENV2 CPE | Yeast UUG start | Cneo AK release
Cn1ccnc1SCC(=O)Nc1cccc(C#N)c1 | -0.1 | 87.3* | -14.2 | 2.6
COc1ccc(NC(=O)Nc2ccc3c(c2)CC(=O)N([C@H](C)CO)C[C@H](C)[C@@H](CN(C)S(=O)(=O)c2cccs2)O3)cc1 | 0.2 | 11.8 | 6.3 | -1.0
CN1C(=O)N[C@@H]2c3ccccc3O[C@@]1(C)[C@@H]2COC(=O)c1ccc([N+](=O)[O-])cc1 | . | 38.3* | . | -2.3
CN1C(=O)N[C@@H]2c3ccccc3O[C@@]1(C)[C@@H]2COC(=O)c1ccccc1 | . | -1.3 | 14.8 | 95.9*
O=C(c1ccccc1F)N1C[C@H]2O[C@@H](CNS(=O)(=O)c3ccccc3)CC[C@H]21 | . | -0.4 | . | .
CCN(CC)c1ccc2nc3c4ccccc4c(=O)cc-3oc2c1 | 203.0* | -0.1 | . | .
CCN(CC)c1ccc2cc(C=O)c(=O)oc2c1 | . | . | 9.2 | -0.5
Cc1ccccc1OCC(=O)Nc1ccc(N2CCOCC2)cc1N1CCOCC1 | . | 2.8 | 6.6 | -1.3
COc1ccccc1OCC(=O)Nc1ccc(N2CCOCC2)cc1N1CCOCC1 | 0.5 | 29.1* | 5.5 | 0.0
COc1cccc(C(=O)NC(=S)Nc2ccccc2N2CCOCC2)c1 | . | . | -21.9 | 35.6

As entered above.
In Cneo AK release, COc1cccc(C(=O)NC(=S)Nc2ccccc2N2CCOCC2)c1 shows 35.6
In Cneo AK release, Cc1ccccc1OCC(=O)Nc1ccc(N2CCOCC2)cc1N1CCOCC1 shows -1.3
In DENV2 CPE, CN1C(=O)N[C@@H]2c3ccccc3O[C@@]1(C)[C@@H]2COC(=O)c1ccc([N+](=O)[O-])cc1 shows 38.3*
In Cneo AK release, CCN(CC)c1ccc2cc(C=O)c(=O)oc2c1 shows -0.5
In Yeast UUG start, CN1C(=O)N[C@@H]2c3ccccc3O[C@@]1(C)[C@@H]2COC(=O)c1ccccc1 shows 14.8

The results go on.
structure | E-sel inducer | DENV2 CPE | Yeast UUG start | Cneo AK release
COc1cc(C(=O)NC(=S)Nc2ccccc2N2CCOCC2)cc(OC)c1OC | 0.4 | 5.4 | -22.2 | 80.3*
Cc1ccccc1NC(=S)NC1CCCC1 | . | -0.4 | -27.5 | 3.1
Cc1cccc(C)c1NC(=S)NC1CCCCC1 | 0.0 | 68.2* | . | .
COc1cccc(NC(=O)CN(C)C(=O)CCSc2ccc(C)cc2)c1 | -0.7 | -7.0 | -6.6 | -2.0
COc1ccc(NC(=O)CN(C)C(=O)CCSc2ccc(C)cc2)cc1 | . | 61.9* | -6.6 | -0.9
COc1cccc(NC(=O)CN(C)C(=O)CC2CCCC2)c1 | 0.3 | -8.9 | -3.4 | -0.3
COc1ccc(NC(=O)CN(C)C(=O)CC2CCCC2)cc1 | 0.1 | 20.2* | . | .
Cc1noc(C)c1S(=O)(=O)Nc1ccc2c(c1)C(=O)N([C@@H](C)CO)C[C@@H](C)[C@H](CN(C)Cc1ccc(Cl)c(Cl)c1)O2 | . | 3.7 | -0.2 | 1.4
CC1(OC(=O)CCc2ccccc2)C(=O)C=C2C=C(c3ccc(C#N)cc3)N(c3ccccc3)C=C2C1=O (centres undefined) | 1.9 | 41.2* | -4.6 | 6.8
COc1ccc(NC(=O)N(C)C[C@H]2OCCCC[C@@H](C)Oc3ccc(NC(=O)CCC(F)(F)F)cc3C(=O)N([C@@H](C)CO)C[C@H]2C)cc1 | -0.2 | 20.9* | 12.7 | -0.8

Ordered by value in DENV2 CPE (rising): 3 of the compounds above.
Compound	DENV2 CPE	Yeast UUG start
CN1C(=O)N[C@@H]2c3ccccc3O[C@@]1(C)[C@@H]2COC(=O)c1ccccc1	-1.3	14.8
COc1ccc2c3c([nH]c2c1)[C@H](CO)N(Cc1ccccc1Cl)CC31CN(C(C)=O)C1	0.3	.
COc1ccc2c3c(n(C)c2c1)[C@H](CO)N(Cc1ccccc1Cl)CC31CCN(C(=O)CC2CC2)CC1	30.8*	.

Screening results as filed in PubChem BioAssay.
